Assay results from patent US8772343B2, “Chemical compounds” (Pfizer Limited, priority 2010, dated 2014).

Chains of the proteins cited; added tags and fusions are not shown.
UniProt Q15858, whole entry: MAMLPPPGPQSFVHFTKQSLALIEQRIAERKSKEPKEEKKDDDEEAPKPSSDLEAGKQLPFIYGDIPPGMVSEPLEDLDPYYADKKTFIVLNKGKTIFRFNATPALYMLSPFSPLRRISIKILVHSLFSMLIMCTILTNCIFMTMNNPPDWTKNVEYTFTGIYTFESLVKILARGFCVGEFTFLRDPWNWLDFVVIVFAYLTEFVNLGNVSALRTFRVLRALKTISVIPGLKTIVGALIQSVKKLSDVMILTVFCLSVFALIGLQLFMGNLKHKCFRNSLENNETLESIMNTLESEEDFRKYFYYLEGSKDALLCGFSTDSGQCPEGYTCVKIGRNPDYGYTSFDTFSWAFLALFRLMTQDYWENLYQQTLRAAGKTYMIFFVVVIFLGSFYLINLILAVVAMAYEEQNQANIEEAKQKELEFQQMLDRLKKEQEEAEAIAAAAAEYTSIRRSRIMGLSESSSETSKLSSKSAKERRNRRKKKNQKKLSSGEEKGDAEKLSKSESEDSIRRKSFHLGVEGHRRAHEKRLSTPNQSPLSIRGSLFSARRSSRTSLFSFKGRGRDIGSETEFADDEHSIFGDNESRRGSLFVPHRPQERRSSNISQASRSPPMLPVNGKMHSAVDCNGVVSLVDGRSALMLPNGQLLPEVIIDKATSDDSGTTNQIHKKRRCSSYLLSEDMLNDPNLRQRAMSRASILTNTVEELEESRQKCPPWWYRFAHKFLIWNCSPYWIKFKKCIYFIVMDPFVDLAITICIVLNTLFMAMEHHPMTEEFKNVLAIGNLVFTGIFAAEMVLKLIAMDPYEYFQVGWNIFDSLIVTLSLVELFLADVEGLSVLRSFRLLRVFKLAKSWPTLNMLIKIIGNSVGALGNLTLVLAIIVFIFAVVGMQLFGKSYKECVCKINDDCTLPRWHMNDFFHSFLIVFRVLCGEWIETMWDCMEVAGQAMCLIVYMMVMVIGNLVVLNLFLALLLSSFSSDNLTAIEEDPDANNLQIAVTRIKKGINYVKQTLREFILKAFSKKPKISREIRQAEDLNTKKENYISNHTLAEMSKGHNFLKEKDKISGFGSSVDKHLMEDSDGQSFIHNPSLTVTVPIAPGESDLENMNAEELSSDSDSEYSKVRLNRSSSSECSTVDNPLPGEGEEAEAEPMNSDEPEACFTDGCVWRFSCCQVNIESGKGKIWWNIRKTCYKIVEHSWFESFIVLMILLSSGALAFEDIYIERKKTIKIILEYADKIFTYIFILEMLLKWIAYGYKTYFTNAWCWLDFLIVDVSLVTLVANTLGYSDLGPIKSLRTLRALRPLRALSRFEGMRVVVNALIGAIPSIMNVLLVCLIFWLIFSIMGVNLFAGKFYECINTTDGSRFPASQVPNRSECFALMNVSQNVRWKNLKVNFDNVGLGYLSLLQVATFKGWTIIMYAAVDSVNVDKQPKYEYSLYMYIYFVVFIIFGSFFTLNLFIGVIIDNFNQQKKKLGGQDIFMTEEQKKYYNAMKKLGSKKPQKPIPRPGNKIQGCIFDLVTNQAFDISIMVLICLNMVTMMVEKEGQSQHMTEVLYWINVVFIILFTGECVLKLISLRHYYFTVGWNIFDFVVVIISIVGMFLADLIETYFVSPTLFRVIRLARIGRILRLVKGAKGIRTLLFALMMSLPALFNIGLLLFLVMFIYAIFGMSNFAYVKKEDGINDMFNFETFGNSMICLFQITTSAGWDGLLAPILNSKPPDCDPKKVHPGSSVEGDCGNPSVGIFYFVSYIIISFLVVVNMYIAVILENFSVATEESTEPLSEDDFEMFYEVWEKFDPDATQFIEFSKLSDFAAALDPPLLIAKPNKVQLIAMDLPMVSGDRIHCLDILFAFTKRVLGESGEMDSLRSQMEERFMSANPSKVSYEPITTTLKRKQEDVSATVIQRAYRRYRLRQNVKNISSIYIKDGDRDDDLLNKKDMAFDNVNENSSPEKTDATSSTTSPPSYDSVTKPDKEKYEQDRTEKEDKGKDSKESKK

Target: Nav1.7 (or SCN9A) channel (Homo sapiens, UniProt Q15858)
Test: Nav1.7 PatchXpress automated whole-cell electrophysiology in HEK cells expressing hSCN9A
Details: read-out: Nav1.7 EIC50, estimated IC50 from single point data, PatchXpress assay, held at V1/2 of inactivation
Procedure: The ability of the compounds of formula (I) to block the Nav1.7 (or SCN9A) channel were measured using the assay described below.
Human Embryonic Kidney (HEK) cells were transfected with an hSCN9A construct using lipofectamine reagent (Invitrogen), using standard techniques. Cells stably expressing the hSCN9A constructs were identified by their resistance to G-418 (400 μg/ml). Clones were screened for expression using the whole-cell voltage-clamp technique.
HEK cells stably transfected with hSCN9A were maintained in DMEM medium supplemented with 10% heat-inactivated fetal bovine serum and 400 μg/ml G-418 in an incubator at 37° C. with a humidified atmosphere of 10% CO2. […]
hSCN9A currents in HEK cells were measured using the whole-cell configuration of the patch-clamp technique (Hamill et al., 1981). […]
HEK cells stably transfected with hSCN9A were viewed under Hoffman contrast optics and placed in front of an array of flow pipes emitting either control or compound-containing extracellular solutions. […] The voltage-dependence of inactivation was determined by applying a series of depolarizing prepulses (8 sec long in 10 mV increments) from a negative holding potential. […] Compounds were tested for their ability to inhibit hSCN9A sodium channels by activating the channel with a 20 msec voltage step to 0 mV following an 8 second conditioning prepulse to the empirically determined V1/2. […]

**Q.** For COc1ncccc1-c1cc(C(=O)NS(C)(=O)=O)c(F)cc1Oc1ccc(Cl)cc1, which IC50 is on record?
**A.** The IC50 was 100 nM.
